Values of other authors as cited in patent US6086915A, “Compositions and methods of adjusting steroid hormone metabolism through phytochemicals” (priority 1998, dated 2000).

Settings: in vivo; cited from earlier work

## d-α-Tocopheryl Polyethylene Glycol-1000 Succinate [TPGS]
  uptake of vitamin D and cyclosporine: increase the uptake of vitamin D and poorly soluble drugs such a cyclosporine
